# Test results published in patent US20230414764A1, “Template Assembly by Proximity-Enhanced Reactivity via Metabolic Labeling” (The General Hospital Corporation, priority 2020, published 2023).
# Like-named read-outs stand apart in the source and are kept apart here.
# System: Jurkat cells (human T lymphoma)
# Format: cell-based
# Description: For Examples 7-11, metabolic labeling was monitored by treatment of cultured cells with the sugar analog peracetylated N-azidoacetylmannosamine (AzNAM), followed after harvest with treatment with the bifunctional click/fluorescent compound DBCO-PEG3-FAM (DPEG-FAM). Surface azide groups resulting from the metabolic labeling process react with the DBCO group (dibenzocyclooctyne) of DPEG-FAM, and were monitored by flow cytometry.
# Jurkat cells (human T lymphoma; 10^5 cells/ml) were treated with or without 100 ng/ml human interferon-beta (IFNβ), for three days in culture. 22 hr prior to harvest, cell media were supplemented with […] AzNAM or control solvent only (DMSO). After harvest and washing, cells (10^6 cells/ml) were treated with 2 mM DPEG-FAM, washed, and subjected to flow cytometric analysis. It was found (see FIGS. 20A-20D) that the geometric mean fluorescence of AzNAM-cells was increased by IFNβ treatment (a 1.4-fold enhancement relative to the untreated value). […] FIGS. 20A-20D show flow cytometric analysis of human Jurkat cells after treatment with 100 ng/ml human IFN-beta for three days, with addition of 100 μM AzNAM at 22 hr prior to harvest. Cells were treated with DPEG-FAM prior to flow analysis.
# With a lowered IFNβ dose of 75 ng/ml and the same general conditions as for Example 7, a similar pattern was seen (see FIGS. 21A-21D; 1.9-fold enhancement relative to the untreated value). As in Example 7, a biphasic response in the DMSO control cells was seen, but in many circumstances the smaller observed peak with stronger fluorescence is attributable to non specific uptake of the DPEG-FAM fluor, through a partial permeabilization effect of the treatments. FIGS. 21A-21D show flow cytometric analysis of human Jurkat cells after treatment with 75 ng/ml human IFN-beta for 3 days, with addition of 100 μM AzNAM at 22 hr prior to harvest. Cells were treated with DPEG-FAM prior to flow analysis.
# The human STING agonist-1 (STAG-1′; MedChemExpress LLC) was tested for Jurkat cells in a similar experimental arrangement as for Examples 7 and 8. A metabolic labeling enhancement with STAG1 was seen, though modest (see FIGS. 23A-23D; 1.2-fold enhancement relative to the untreated value). The impact on control DMSO-treated cells was minimal. FIGS. 23A-23D show flow cytometric analysis of human Jurkat cells after treatment with 50 μM STING agonist 1 (STAG1) for 3 days, with addition of 100 μM AzNAM at 22 hr prior to harvest. Cells were treated with DPEG-FAM prior to flow analysis.
# [1] = Jurkat, 100 ng/ml human IFNβ 3 days
substance,measurement,setting,value
IFNβ: human interferon-beta,enhancement of metabolic labeling relative to the untreated value,"Jurkat, 75 ng/ml human IFNβ 3 days",1.9 fold
same,enhancement of geometric mean fluorescence of AzNAM-cells relative to the untreated value,[1],1.4 fold
same,fluorescence shift in control DMSO-treated cells compared to the AzNAM cells,[1],reduced magnitude
same,geometric mean fluorescence (GM),"Jurkats/AzNAM+IFNβ: 75 ng/ml human IFN-beta 3 days, 100 μM AzNAM 22 hr prior to harvest",385.16
same,geometric mean fluorescence (GM),"Jurkats/AzNAM+IFNβ: 100 ng/ml human IFN-beta 3 days, 100 μM AzNAM 22 hr prior to harvest",150.15
same,geometric mean fluorescence (GM),"Jurkats/DMSO+IFNβ: 75 ng/ml human IFN-beta 3 days, control solvent only",19.40
same,geometric mean fluorescence (GM),"Jurkats/DMSO+IFNβ: 100 ng/ml human IFN-beta 3 days, control solvent only",16.66
